Data published in US11083725B2 (priority 2014, dated 2021).

Tested on: NHBE cells
Test: Biolog metabolic array: substrate use by NHBE cells with or without CA09 infection
Assay type: cell-based, human
Details: Control (uninfected) NHBE cells

NCCCC(=O)O [g-Amino Butyric Acid]
590 nm absorbance normalized to zero hour (substrate use), 2 hr: 1.36
